Patent US9320731B2, “7-azoniabicyclo[2.2.1]heptane derivatives, methods of production, and pharmaceutical uses thereof” (dated 2016)

Tests used:
[1] = test system: methacholine-induced bronchoconstriction in rat; experiment: Rat bronchoprotection, MCh dose response after inhalation; conditions: for Potency (ID50): 24 h post inhalation, nebulized drug solution 25 min, i.v. methacholine challenge; for Duration: duration of bronchoprotective effects against methacholine-induced bronchoconstriction after inhalation
[2] = test system: methacholine-induced bronchoconstriction in guinea pig; experiment: Guinea pig bronchoprotection, MCh dose response after inhalation; conditions: for Potency (ID50): 24 h post inhalation, nebulized drug solution 25 min, i.v. methacholine challenge; for Duration: duration of bronchoprotective effects against methacholine-induced bronchoconstriction after inhalation

Structure (SMILES) | Potency (ID50) [1] | Duration [1] | Potency (ID50) [2] [µg/mL] | Duration [2]
C[N+]1(C)C2CC[C@H]1[C@@H](OC(=O)[C@](O)(c1ccccc1)C1CCCC1)C2.[Br-] | >10 µg/mL | + (+ <24 h duration) |  | 
C[N+]1(C)C2CC[C@@H]1[C@@H](OC(=O)[C@](O)(c1ccccc1)C1CCCC1)C2.[Br-] | ≦3 μg/mL | +++ (+++ ≧48 h duration) | 5 | +++ (+++ ≧48 h duration)
C[N+]1(C)C2CC[C@@H]1[C@@H](OC(=O)[C@@](O)(c1ccccc1)C1CCCC1)C2.[Br-] |  | − |  | 
C[N+]1(C)C2CC[C@H]1[C@H](OC(=O)[C@@](O)(c1ccccc1)C1CCCC1)C2.[Br-] |  | − |  | 
C[N+]1(C)C2CC[C@@H]1[C@H](OC(=O)[C@](O)(c1ccccc1)C1CCCC1)C2.[Br-] | ≦3 μg/mL | +++ (+++ ≧48 h duration) | 3 | +++ (+++ ≧48 h duration)
C[N+]1(C)C2CC[C@@H]1[C@H](OC(=O)[C@@](O)(c1ccccc1)C1CCCC1)C2.[Br-] |  | − |  | 
C[N+]1(C)C2CC[C@H]1[C@@H](OC(=O)[C@@](O)(c1ccccc1)C1CCCC1)C2.[Br-] |  | − |  | 
C[N+]1(C)C2CC[C@H]1[C@H](OC(=O)[C@](O)(c1ccccc1)C1CCCC1)C2.[Br-] | ≧10 μg/mL | ++ (++ ≧24 h duration) | 50 | +++ (+++ ≧48 h duration)
